The text below walks through data of patent publication US8546386B2, “Corrosion and microbial control in hydrocarbonaceous compositions” (Dow Global Technologies LLC, priority 2008, dated 2013).

Structures are written as SMILES.

Experiment [1] concerns Yarrowia tropicalis ATCC#48138. In words: Microbial testing in biodiesel fuel, plate count. In kind it is cell-based. Particulars: no biocide.
In experiment [2] the test system is Hormoconis resinae ATCC#20495. In words: Microbial testing in biodiesel fuel, plate count. In kind it is cell-based. The following applies: no biocide.

Turning to `OCCN(CCO)CCO`, the “Yeast (Y. tropcalis) count” value was 8.80E+03 Yeast/ml in experiment [1] (additive 500 ppm, Week 1); 6.00E+03 Yeast/ml in experiment [1] (additive 500 ppm, Week 2); 2.00E+04 Yeast/ml in experiment [1] (additive 500 ppm, Week 3); 4.20E+04 Yeast/ml in experiment [1] (additive 500 ppm, Week 4); <1.0E2 Yeast/ml in experiment [1] (additive 1500 ppm, Week 1); <1.0E2 Yeast/ml in experiment [1] (additive 1500 ppm, Week 2). Besides, the “Yeast (Y. tropcalis) count” value in experiment [1] (additive 1500 ppm, Week 3) is on record as <1.0E2 Yeast/ml. Further, the “Mold (H. resinae) count” value in experiment [2] (additive 500 ppm, Week 1) is listed as 2.30E+04 Mold/ml; in experiment [2] (additive 500 ppm, Week 2), 1.20E+05 Mold/ml; in experiment [2] (additive 500 ppm, Week 3), 1.70E+06 Mold/ml; in experiment [2] (additive 1500 ppm, Week 2) it was 2.30E+02 Mold/ml; in experiment [2] (additive 1500 ppm, Week 3), 4.20E+03 Mold/ml; in experiment [2] (additive 1500 ppm, Week 4), 5.60E+02 Mold/ml.
